# Literature values in patent publication US20100189701A1, “METHODS AND COMPOSITIONS TO TREAT ARRHYTHMIAS” (priority 2007, published 2010).
# Settings: steady state inactivation; cited from earlier work
substance,measurement,value
SCN5a: cardiac sodium channel,Slope factor,−6.5 mV
